Screening results deposited in PubChem BioAssay by National Center for Advancing Translational Sciences (NCATS).
TDP1 block: inhibitors of human tyrosyl-DNA phosphodiesterase TDP1 | Q9NUW8 | recombinant TDP1, AlphaScreen DNA substrate cleavage | Potency, µM (doses to about 130 µM), most hits filed as inhibitors | 350,000 tested, 0.28% active; further: nearly all actives have a fitted effect of over 40% in size
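Here, a 5' biotin and 3' phosphotyrosine-FITC DNA oligonucleotide reports Tdp1 activity: intact substrate bridges AlphaScreen beads, while cleavage leaves a 3' phosphate and drops signal. All incubations at room temperature.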
TDP1 cell noCPT: qHTS for Inhibitors of human tyrosyl-DNA phosphodiesterase 1 (TDP1): qHTS in cells in absence of CPT; DT40 Tdp1-/- hTDP1 cells, no CPT, ATP luminescence, 48 h; Potency, µM (top dose mostly 46.2 µM), hits mostly inhibitors; 420,000 tested, 15% active; AID 686978, 2013; further: nearly all actives have a fitted effect of over 55% in size
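Cells were dispensed at 400 per well, compounds added by pin tool, plates incubated ≥48 hr at 37 °C, then CellTiter-Glo added for 30 min at room temperature before luminescence reading. Line: DT40 Tdp1-/- complemented with hTDP1; camptothecin omitted.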
uPA surface inh: cell surface uPA generation inhibition. cell surface uPA generation assay, qHTS. Potency, µM (titrated, usually from 38.3 µM), actives largely listed as inhibitors. 330,000 tested, 0.31% active; active means well fitted inhibition curve with a large enough effect; inconclusive means small, poorly fitted or top-dose-only effect; inactive means no such curve, though single readings can be large or run the other way; tested in mouse RAW 264.7 cells; further: nearly all actives have a fitted effect of over 55% in size
TDP1 cell CPT: DT40-hTDP1 cell growth loss with CPT. chicken DT40 Tdp1-/-;hTDP1 cells + 20 nM CPT, ATP luminescence, 48 h. Potency, µM (highest dose often 46.2 µM), usual class: inhibitors. 420,000 tested, 12% active; further: nearly all actives have a fitted effect of over 55% in size
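Cell growth measured by CellTiter-Glo luminescence after a minimum 48 h, 37 C compound exposure with 20 nM CPT in Tdp1-knockout DT40 cells stably expressing hTDP1, seeded 400/well; qHTS titration format.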
miR-21 reporter: miR-21 reporter, rising signal | AID 2288 | HeLa miR-21 FLuc reporter, luciferase, 48 h | 340,000 tested, under 10 active | Potency, µM (doses to about 38.3 µM); active = well fitted rising curve with a large enough effect; inconclusive = small, poorly fitted or top-dose-only effect; inactive = no such curve, though single readings can be large or run the other way;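 note: miR-21 action dims this reporter so a rising signal means less miR-21 action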
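HeLa miR-21-FLuc reporter line, endogenous miR-21; 2000 cells/well in DMEM/10% FBS; compound titration up to ~40uM final, 48 h, 37 degree Celsius; luciferase detection reagent, 15 min lysis, CCD luminescence.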
Hits are given with their value; . = inactive; ? = inconclusive; / = no result given; [ ] = remark or other dose. Most compounds without a hit are left out; they make up all but 16% or so of the library. Unless noted, the call rests on the fitted dose curve; in most records, active means well fitted curve in the direction sought with a large enough effect; inconclusive means small, poorly fitted or top-dose-only effect, or another doubt; inactive means no such curve, though single readings can be large; an effect the other way counts as inactive or inconclusive.

SMILES	TDP1 block	TDP1 cell noCPT	uPA surface inh	TDP1 cell CPT	miR-21 reporter
CC(=O)Nc1ccccc1OC(C)C(=O)N1CC(C)CC(C)C1 (stereo unspecified)	.	20.6µM	.	?	.
CC1CC(C)CN(C(=O)Nc2ccccc2F)C1 (stereo unspecified)	.	.	.	.	.
CCNc1nc(NCC)n2c(SCC(=O)Nc3cccc(Cl)c3)nnc2n1	/	?	.	?	/
CCNc1nc(NCC)n2c(SC(C(=O)Nc3cc(Cl)cc(Cl)c3)c3ccccc3)nnc2n1 (stereo unspecified)	.	16.4µM	.	23.1µM	.
Cc1c(C(C)(C)O)[nH]c2cc(C(F)(F)F)ccc12	/	13µM	.	?	.
O=S(=O)(NCC(c1ccco1)S(=O)(=O)c1cccs1)c1ccc(F)c(C(F)(F)F)c1 (stereo unspecified)	.	?	/	?	.
CCCC(c1nnnn1Cc1ccccc1)N1CCN(c2ccccc2OC)CC1 (stereo unspecified)	.	?	.	?	.
CCC(c1nnnn1Cc1ccc(OC)cc1)N1CCN(c2ccc(OC)cc2)CC1 (stereo unspecified)	.	.	.	.	.
CCCC(c1nnnn1Cc1ccc(OC)cc1)N1CCN(c2ccccc2OC)CC1 (stereo unspecified)	.	20.6µM	.	?	.
CCC(c1nnnn1Cc1ccc2c(c1)OCO2)N1CCN(c2ccc(F)cc2)CC1 (stereo unspecified)	.	?	.	20.6µM	.
CCC(c1nnnn1Cc1ccc2c(c1)OCO2)N1CCN(c2ccc(OC)cc2)CC1 (stereo unspecified)	.	?	.	25.9µM	.
Cc1ccc(S(=O)(=O)N(C)C)cc1NC(=S)Nc1ccc2[nH]c(=O)[nH]c2c1	.	.	.	.	.
Cc1cccc(C(=O)N=c2sccn2C)c1[N+](=O)[O-]	.	.	.	?	.
Cc1ccccc1C(=O)N=c1sccn1C	.	3.26µM	.	.	.
CC[C@]12CCCN3CCc4c(n(c5ccccc45)C(=O)C1)C32 (stereo partly specified)	.	?	?	?	.
Cc1nc(SCC(=O)O)c(C#N)c2c1CCCC2	10µM	.	?	?	.
COC(=O)CSc1nc(N2CCCCC2)c2c(c1C#N)CCCC2	.	23.1µM	.	?	.
COC(=O)CSc1nc(-c2ccccc2)c2c(c1C#N)CCCC2	.	?	.	.	.
CCc1nc(SCC(=O)O)c(C#N)c2c1CCCC2	.	.	.	.	.
CC12CCC=CC1C(c1ccc3ccccc3c1)N(Cc1ccccc1)C2=O (stereo unspecified)	.	/	/	/	/
CCC(C(=O)NCCc1ccc(OC)c(OC)c1OC)n1nc(C)c2sc3ccccc3c2c1=O (stereo unspecified)	.	11.6µM	/	9.2µM	.
COc1ccc(CCNC(=O)C(C)n2nc(C)c3sc4ccccc4c3c2=O)c(OC)c1 (stereo unspecified)	.	16.4µM	/	20.6µM	.
CCOc1ccc(CCNC(=O)CCCn2nc(C)c3sc4ccccc4c3c2=O)cc1OCC	.	18.4µM	/	23.1µM	.
CCc1ccc(C(=O)/C=C/Nc2ccc(S(=O)(=O)Nc3onc(C)c3C)cc2)cc1	.	.	.	.	.
CC[n+]1c(C)sc2cc(C)ccc21	.	3.66µM	.	3.66µM	.
SMILES	TDP1 block	TDP1 cell noCPT	uPA surface inh	TDP1 cell CPT	miR-21 reporter
CCN1C(=O)/C(=C2\Sc3ccccc3N2CC)OC1=S	.	.	.	.	.
CCOC(=O)c1c(NC(=O)CSc2cn(CCNC(=O)c3ccc(OC)c(OC)c3)c3ccccc23)sc2c1CCCC2	.	2.91µM	/	7.31µM	.
CCOC(=O)c1c(NC(=O)C(C)Sc2cn(CCNC(=O)c3ccccc3OC)c3ccccc23)sc2c1CCC2 (stereo unspecified)	.	5.17µM	/	18.4µM	.
CCOC(=O)c1c(NC(=O)C(C)S(=O)(=O)c2cn(CC)c3ccccc23)sc2c1CCCC2 (stereo unspecified)	.	6.51µM	.	?	.
CCOC(=O)c1c(NC(=O)CSc2nnc(-c3c[nH]c4ccccc34)n2C)sc2c1CCCC2	.	?	.	?	.
CCOC(=O)c1c(NC(=O)CSc2cn(CCNC(=O)c3c(F)cccc3F)c3ccccc23)sc2c1CCC2	.	?	/	?	.
CCOC(=O)c1c(NC(=O)CSc2nnc(-c3c[nH]c4ccccc34)n2CCOC)sc2c1CCCC2	.	14.6µM	?	23.1µM	.
CCOC(=O)c1c(NC(=O)c2ccccc2C)sc2c1CCCC2	.	?	/	.	.
Cc1ccc(S(=O)(=O)NCc2ccc(C(=O)NCCCN3CCC(Cc4ccccc4)CC3)cc2)cc1	.	.	/	.	?
OCC1OC(c2ccccc2)C=CC1Oc1ccc(C2CCCC2)cc1 (stereo unspecified)	.[21 µM]	/	/	/	/
CCOC(=O)c1c(NC(=O)c2ccc(OC)c(OC)c2)sc2c1CCCCC2	.[12.3 µM]	?	/	?	.
CCOC(=O)c1c(NC(=O)C(C)Sc2cn(CCNC(=O)c3ccc(OC)c(OC)c3)c3ccccc23)sc2c1CCC2 (stereo unspecified)	.	?	/	20.6µM	.
COc1ccc(C2NC(=O)C(C#N)=C(S)N2c2cccc(C)c2)cc1OC (stereo unspecified)	.	?	.	.	.
Cc1cc(C)nc(S/C=C/C(=O)c2ccccc2F)n1	.	3.66µM	.	2.06µM	.
C=CC1=C2C=C(C3CC3)N(CCN3CCOCC3)C=C2C(=O)C(C)(OC(=O)c2ccco2)C1=O (stereo unspecified)	.[12.3 µM]	/	/	/	/
Cc1ccc(-c2cc(C(=O)Nc3cccc(S(=O)(=O)N(C)C)c3)c3ccccc3n2)o1	.	16.4µM	.	?	.
Cc1ccc(-c2cc(C(=O)N3CC(C)CC(C)C3)c3ccccc3n2)o1 (stereo unspecified)	.	18.4µM	.	?	.
Cc1ccc(-c2cc(C(=O)NCc3ccco3)c3ccccc3n2)o1	/	?	.	?	.
COC(=O)c1cc(-c2ccc(C)o2)nc2ccccc12	/	14.6µM	.	7.31µM	.
Cc1ccc(-c2cc(C(=O)Nc3ccccc3C)c3ccccc3n2)o1	.	18.4µM	.	?	.
Cc1cc(C(=O)Nc2ccccc2C)c2ccccc2n1	/	.	.	.	.
COc1ccc(C(=O)N/C(=C\c2cccc3ccccc23)C(=O)NCCc2c[nH]c3ccccc23)cc1OC	.	?	.	.	.
COC1CC(NC(C)=O)C(OC(=O)c2ccccc2)C(CBr)O1 (stereo unspecified)	/	.	/	.	/
CCN1C(=O)/C(=C/C=C2/CCCN2C)OC1=S	.	5.17µM	.	?	.
COc1cc(/C=C(/C#N)c2ccccc2F)ccc1OCc1ccccc1	.	18.4µM	.	16.4µM	.
